Values of other authors, collected in patent publication US8529964B1, “Method and composition for suppression and control of citrus canker and other plant diseases” (priority 2010, dated 2013).

Question: For copper fluoride, which “water solubility (in words)” value is on record?
Answer: The value was “slightly water soluble”.
